Patent US20040241871A1, “Method and apparatus for analyzing endocrine-distrupting substances in vital sample” (priority 2001, published 2004)

Parameters: species or system human
Settings: in vivo
Source text: Maternal serum, cord serum and mother's milk samples collected from 10 mothers were used (30 samples in total). These samples were used for the analysis test after obtaining the consent from the subjects.
The GPC column used was Shodex (registered trademark) EV-200AC Column (polystyrene-base hard gel column having an inner diameter of 2 mm and a length of 150 mm) manufactured by Showa Denko K. K.
A programmed temperature vaporizer (PTV) was equipped and in the GC part, an inactivated silica tube (2 m (length)×0.53 mm (inner diameter)) and capillary columns DB-5 (0.5 m (length)×0.25 mm (inner diameter), film thickness: 0.25 μm; and 60 m (length)×0.25 mm (inner diameter), film thickness: 0.1 μm), both manufactured by J & W Scientific, were used. After the injection of solution, the temperature was kept at 83° C. (for 5 minutes) and then elevated to 172° C. at 1° C./min and further to 270° C. at 50° C./min. The measurement was performed at 280° C.
Acetone/cyclohexane (3:7) (v/v) was passed through the GPC column for use in the main test at a flow rate of 0.1 ml/min and thereto a sample containing a vital fat, a PCB sample and water were injected and measured on the elution time from the GPC column. As a result, it was confirmed the elution of fat and dye component was completed in 0 to 3.2 minutes after the injection, the elution of PCB sample was completed in 3.2 to 5.2 minutes and the water content started flowing out after 5.2 minutes.
A calibration curve was prepared for 209 kinds of PCB isomers. […]
The cord serum (8 ml), the maternal serum (4 ml) and the mother's milk (2 ml) each was subjected to fat extraction according to the method by Patterson et al. More specifically, the sample was charged into a separating funnel, the internal standard substance was added, and then saturated ammonium sulfate, ethanol and hexane were added at a ratio of about 1:1:3. […] Thereafter, the total weight of fat was measured. […]

Substance: polychlorinated biphenyl [PCB]
- Concentration of Endocrine-Disrupting Substance in Vital Sample, Cord Serum: 60.90 ppb
- Concentration of Endocrine-Disrupting Substance in Vital Sample, Maternal Serum: 98.52 ppb
- Concentration of Endocrine-Disrupting Substance in Vital Sample, Mother's Milk: 95.02 ppb
